Experiments:
hGLP-1R [1] = target: T1, hGLP-1R (Homo sapiens, UniProt P43220); test: DMR antagonism (desensitization) assay in HEK293-GLP-1R cells, taspoglutide challenge; format: cell-based; settings: desensitization when stimulated by agonist taspoglutide
Protocol: (§1) HEK293 cells were transfected with 8 μg of pcDNA3.1-GLP-1R plasmid mixed with 24 μl of Lipofectamine 2000 reagent (Invitrogen). After 24 h post-transfection, clones were selected using a complete medium containing 600 μg/ml G418 (LabLEAD Co., Beijing, China) and 6 μg/ml blasticidin S (Beyotime Co., Shanghai, China). Stable clones were selected through treatment with 600 μg/ml G418 and 6 μg/ml blasticidin S for 3–4 weeks to obtain the successfully transfected cell line HEK293-GLP-1R. Following culture for 3–4 months, the stably transfected cell line HEK293-GLP-1R was established. […] The culture medium in the 384-well biosensor plates was replaced with 30 μl of Hank’s balanced salt solution (1 × HBSS) and then further incubated inside the system for 1 h before measurement. […] All DMR responses were background-corrected.

By UniProt entry, the sequences of proteins in these tests, tags left out. Residues count along the entry.
UniProt P43220, 24-463 limits assumed: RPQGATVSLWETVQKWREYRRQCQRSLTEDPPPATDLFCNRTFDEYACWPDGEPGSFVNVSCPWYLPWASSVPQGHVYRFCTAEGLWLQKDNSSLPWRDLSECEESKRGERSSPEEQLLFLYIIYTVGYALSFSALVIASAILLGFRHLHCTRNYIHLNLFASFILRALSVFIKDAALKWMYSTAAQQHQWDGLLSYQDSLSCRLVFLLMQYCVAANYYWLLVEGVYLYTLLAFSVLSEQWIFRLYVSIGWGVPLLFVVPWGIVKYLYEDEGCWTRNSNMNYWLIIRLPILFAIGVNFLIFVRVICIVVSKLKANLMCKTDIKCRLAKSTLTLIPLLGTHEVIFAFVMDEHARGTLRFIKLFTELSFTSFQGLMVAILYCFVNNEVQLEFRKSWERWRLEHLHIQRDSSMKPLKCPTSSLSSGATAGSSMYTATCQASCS

hGLP-1R [2] = target: T1, hGLP-1R; test: DMR agonism assay in HEK293-GLP-1R cells; format: cell-based
Protocol: as §1

Structure (SMILES)	GLP-1R activity (result in words) (hGLP-1R [1])	compound-triggered DMR signal in GLP-1R-HEK293 cells (hGLP-1R [2])
Cc1ccccc1C1=NOC(CN(Cc2cccc(F)c2)CC(O)COCC(C)C)C1 (stereo not shown)	GLP-1R receptor antagonistic activity at 200 μM	either do not induce a DMR signal or exhibit a weak signal
CCOC(=O)C1CCCN(C(=O)c2cccc(CSc3nc(C)cc(N4CCN(c5cccc(C(F)(F)F)c5)CC4)n3)c2)C1 (stereo not shown)	possesses GLP1R receptor antagonistic activity	does not induce a DMR signal
COc1ccc2c(c1)NC1(CCN(C(=O)NCCc3ccccc3)CC1)c1cccn1-2	partial GLP-1R antagonistic activity	do not induce a DMR signal
Cc1cc(C)c2c(n1)-n1cccc1C(c1ccc(F)cc1)N(C(=O)Nc1cccc(Cl)c1)C2 (stereo not shown)	partial GLP-1R antagonistic activity	do not induce a DMR signal
COCc1nc(-c2ccccc2)nc(N2CCN(C(C)=O)CC2)c1Cc1cccc(C(F)(F)F)c1	GLP-1R receptor antagonistic activity at 200 μM	either do not induce a DMR signal or exhibit a weak signal
